The results in this text go back to the OPERA property sets (Mansouri et al. 2018).

Values after ≈ are worked out from the molar mass of the structure shown.

In general, solubility refers to the dissolved amount per volume that the medium holds. Read a low solubility as little dissolved substance. In turn, `CS(=O)(=O)N(SC(Cl)(Cl)C(F)(Cl)Cl)c1ccccc1` gave a solubility of 7.1 µM (≈ 2.75 µg/mL).
